The numbers were not newly measured in PMC12369603, “Functional characterization of antennae-enriched chemosensory protein 4 in emerald ash borer, Agrilus planipennis” (PeerJ, 2025), which cites them from elsewhere.

This series relates to female A. planipennis. The settings on record: ref Cáceres et al., 2016, Sun et al.; cited from earlier work.

For `CC(=O)/C=C/C1=C(C)CCCC1(C)C` [β-Ionone], the repellent activity result is reported as “repellent activity”.
